# Measured values reported in patent US20100158980A1, “DRUG DELIVERY DEVICES FOR DELIVERY OF THERAPEUTIC AGENTS” (priority 2008, published 2010).
# Assay: Solubility of active agents
# Conditions: PBS at pH=7.2-7.4
# Description: The active agent may be any active agent suitable to treat the desired condition. […] Examples include, but are not limited to, acetazolamide, dorzolamide HCl, timolol maleate, and ethacrynic acid sodium salt.
substance,measurement,value
latanoprost arginine salt,solubility class,moderate solubility
